Tests used:
[1] = biological target: CDK2/CycA (Homo sapiens, UniProt P24941); experiment: 33PanQinase protein kinase activity assay; assay type: biochemical; conditions: recombinant kinase, 1 µM ATP
[2] = biological target: CDK4/CycD1 (Homo sapiens, UniProt P11802); experiment: 33PanQinase protein kinase activity assay; assay type: biochemical; conditions: recombinant kinase, 1 µM ATP

By UniProt entry, the sequences of proteins in these tests, tags left out. Where a name states a change or a piece, a line headed by the entry shows the natural chain unless it says otherwise.
UniProt P11802: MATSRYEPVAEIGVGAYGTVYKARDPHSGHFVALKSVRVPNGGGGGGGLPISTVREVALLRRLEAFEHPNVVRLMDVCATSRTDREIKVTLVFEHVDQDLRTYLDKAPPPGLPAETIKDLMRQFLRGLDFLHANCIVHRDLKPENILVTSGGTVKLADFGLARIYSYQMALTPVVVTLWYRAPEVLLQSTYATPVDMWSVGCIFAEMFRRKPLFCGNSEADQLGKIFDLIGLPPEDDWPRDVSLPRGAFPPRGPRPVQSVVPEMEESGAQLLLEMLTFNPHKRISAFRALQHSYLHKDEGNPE

- IC50 [1]: > 100 µM
- IC50 [2]: > 100 µM
SMILES: COc1cc(-c2nc(-c3c[nH]c4ccccc34)c[nH]c2=O)cc(OC)c1OC [Compound 5, 5-(1H-indole-3-yl)-3-(3,4,5-trimethoxyphenyl)pyrazin-2(1H)-one]
